Patent US5494895A, “Scorpion peptide margatoxin with immunosuppressant activity” (Merck & Co., Inc., priority 1993, dated 1996)

The chains behind the UniProt entries cited, without tags or fusion partners.
UniProt P15384, whole entry: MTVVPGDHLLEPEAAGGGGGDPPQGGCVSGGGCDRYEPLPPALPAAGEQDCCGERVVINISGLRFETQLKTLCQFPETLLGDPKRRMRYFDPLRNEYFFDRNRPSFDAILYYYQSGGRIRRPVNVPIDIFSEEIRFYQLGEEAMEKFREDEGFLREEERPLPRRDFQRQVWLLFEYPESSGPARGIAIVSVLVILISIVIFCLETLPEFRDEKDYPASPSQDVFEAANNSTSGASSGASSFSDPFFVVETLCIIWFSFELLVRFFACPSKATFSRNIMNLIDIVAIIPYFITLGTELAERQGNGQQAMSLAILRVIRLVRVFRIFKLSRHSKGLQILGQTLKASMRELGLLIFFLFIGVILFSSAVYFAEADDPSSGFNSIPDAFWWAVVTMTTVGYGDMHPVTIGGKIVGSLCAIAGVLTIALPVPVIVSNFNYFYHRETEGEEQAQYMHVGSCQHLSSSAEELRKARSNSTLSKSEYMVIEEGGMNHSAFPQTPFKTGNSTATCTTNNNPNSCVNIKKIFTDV

Biological target: T1, Kv 1.3 (Rattus norvegicus, UniProt P15384)
T1 construct: from tissue; host or cells: rat brain synaptic plasma membrane vesicles
Experiment: [125I]ChTX binding to rat brain synaptic plasma membrane vesicles
Protocol: The potency of MgTX as an inhibitor of [^125 I]ChTX binding to Kv 1.3 was evaluated. The binding of [^125 I]ChTX to either rat brain synaptic plasma membrane vesicles (Kv 1.3 channel; Vazquez et al., J. Biol. Chem. 265, 15564, 1990) or bovine aortic smooth muscle sarcolemmal membranes (Maxi-K channel; Vazquez et al., J. Biol. Chem. 264, 20402, 1989) was determined as described. Briefly, membrane vesicles were incubated with [^125 I]ChTX in the presence or absence of other added agents, until equilibrium was achieved. Separation of bound from free ligand was accomplished by filtration through GF/C glass fiber filters (WHATMAN) that had been presoaked in 0.5% polyethyleneimine. Nonspecific binding was determined in the presence of 10 nM unlabeled ChTX. Data from saturation experiments were analyzed in a Scatchard representation to determine Kd and Bmax values. Triplicate samples were obtained for each experimental point and the data were averaged. The standard deviation of the mean was typically less than 2%. […] As an indication of selectivity, MgTX had no effect on [^125 I]ChTX binding to the Maxi-K channel in smooth muscle membranes at concentrations up to 10 nM.

CSCC[C@@H]1NC(=O)[C@@H]2CSSC[C@H](NC(=O)[C@H](CO)NC(=O)[C@@H](NC(=O)[C@H](CC(N)=O)NC(=O)[C@@H](NC(=O)[C@H](Cc3ccccc3)NC(=O)[C@@H]3CCC(=O)N3)[C@@H](C)O)C(C)C)C(=O)N[C@@H]([C@@H](C)O)C(=O)N[C@@H]([C@@H](C)O)C(=O)N[C@@H](CO)C(=O)N[C@@H](CCCCN)C(=O)N[C@@H](CCC(=O)O)C(=O)N[C@H]3CSSC[C@H](NC(=O)[C@H](CCCCN)NC(=O)[C@H](CCCCN)NC(=O)[C@H](CC(N)=O)NC1=O)C(=O)N[C@@H](CCCNC(=N)N)C(=O)N[C@H](C(=O)N[C@@H](Cc1ccc(O)c(I)c1)C(=O)N[C@@H](CO)C(=O)O)CSSC[C@H](NC(=O)[C@H](C(C)C)NC(=O)[C@H](CO)NC(=O)[C@H](Cc1c[nH]c4ccccc14)NC3=O)C(=O)N[C@@H](CCC(N)=O)C(=O)N[C@@H](CCCNC(=N)N)C(=O)N[C@@H](CC(C)C)C(=O)N[C@@H](Cc1c[nH]cn1)C(=O)N[C@@H](CC(N)=O)C(=O)N[C@@H]([C@@H](C)O)C(=O)N[C@@H](CO)C(=O)N[C@@H](CCCNC(=N)N)C(=O)NCC(=O)N[C@@H](CCCCN)C(=O)N2 [[^125 I]ChTX, reference compound]
maximum density of [125I]ChTX sites (control conditions, saturation binding): 0.43 pmol/mg protein | receptor density of [125I]ChTX sites (in the presence of 25 pM MgTX): 0.34 pmol/mg protein
